The source of these data is US6066642A, “Dihydropyridine-, pyridine-, benzopyran-4-one- and triazoloquinazoline derivative, their preparation and their use as adenosine receptor antagonists” (priority 1998, dated 2000).

By UniProt entry, the sequences of proteins in these tests, tags left out.
UniProt P25099, whole entry: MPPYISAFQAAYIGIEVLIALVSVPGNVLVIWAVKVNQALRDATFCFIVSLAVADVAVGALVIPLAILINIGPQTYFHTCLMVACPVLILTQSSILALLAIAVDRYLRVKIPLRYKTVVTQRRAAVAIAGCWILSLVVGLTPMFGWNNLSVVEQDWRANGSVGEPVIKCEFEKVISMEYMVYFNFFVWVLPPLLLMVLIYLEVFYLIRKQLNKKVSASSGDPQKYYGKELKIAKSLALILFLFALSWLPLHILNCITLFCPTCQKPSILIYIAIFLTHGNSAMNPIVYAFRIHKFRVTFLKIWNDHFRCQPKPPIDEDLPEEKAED
UniProt P30543, whole entry: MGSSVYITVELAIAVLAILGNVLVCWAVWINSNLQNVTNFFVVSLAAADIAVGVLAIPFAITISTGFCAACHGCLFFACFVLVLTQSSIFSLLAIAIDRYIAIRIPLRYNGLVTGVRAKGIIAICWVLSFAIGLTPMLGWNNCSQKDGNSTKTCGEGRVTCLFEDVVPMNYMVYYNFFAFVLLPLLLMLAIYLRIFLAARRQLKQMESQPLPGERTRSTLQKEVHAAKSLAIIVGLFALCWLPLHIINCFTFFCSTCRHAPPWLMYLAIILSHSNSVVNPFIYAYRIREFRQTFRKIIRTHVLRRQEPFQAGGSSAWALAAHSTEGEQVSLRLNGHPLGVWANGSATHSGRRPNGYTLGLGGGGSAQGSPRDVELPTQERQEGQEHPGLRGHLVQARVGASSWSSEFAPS

The structures appear in SMILES notation. Where only a bound is given, the exact number is not on record here.

As a reminder, the Ki is the equilibrium dissociation constant of an inhibitor or competing ligand from its target.

One experiment has as its target A1 receptors (Rattus norvegicus, UniProt P25099). The class given is binding. As to conditions: Table 3; [3H]PIA, rat brain membranes; read-out: Ki rA1.
A further experiment addresses T1, A2a receptors (Rattus norvegicus, UniProt P30543).
T1 construct: Displacement of specific [^3 H]; from tissue; host or cells: rat striatal membranes
The experiment is described as follows: radioligand binding, displacement of specific [3H]CGS 21680 binding in rat striatal membranes.

For the compound `CCOc1ccc(-c2oc3cc(OCC)cc(OCC)c3c(=O)c2OCC)c(OCC)c1` [Compound 8, 2',3,4',5,7-Pentaethoxyflavone], at A1 receptors, the inhibitory constant (Ki) was 32.3 ± 9.1 µM.

For the compound `CCOC(=O)C1=C(C)NC(c2ccccc2)=C(C(=O)OCc2ccc([N+](=O)[O-])cc2)C1C#Cc1ccccc1` (racemic) [Compound 122g], the inhibition at 100 µM on A2a receptors (read-out: displacement of specific binding rA2A) was < 10%.

Take `COCCOC(=O)C1=C(C)NC(C)=C(C(=O)OC(C)C)C1c1cccc([N+](=O)[O-])c1` (stereo not drawn) [Compound 64, reference compound]: the Ki at A2a receptors (Table 9, [3H]CGS 21680, rat striatal membranes, read-out: Ki rA2A) is 44.3 µM.
